Experimental data reported in ChEMBL document CHEMBL1122429, “In vitro and in vivo protection of acetylcholinesterase against organophosphate poisoning by pretreatment with a novel derivative of 1,3,2-dioxaphosphorinane 2-oxide” (1983).

Amino acid sequences for entries named in this document (tags omitted). Residues count along the entry.
UniProt O42275, 24-633 limits assumed: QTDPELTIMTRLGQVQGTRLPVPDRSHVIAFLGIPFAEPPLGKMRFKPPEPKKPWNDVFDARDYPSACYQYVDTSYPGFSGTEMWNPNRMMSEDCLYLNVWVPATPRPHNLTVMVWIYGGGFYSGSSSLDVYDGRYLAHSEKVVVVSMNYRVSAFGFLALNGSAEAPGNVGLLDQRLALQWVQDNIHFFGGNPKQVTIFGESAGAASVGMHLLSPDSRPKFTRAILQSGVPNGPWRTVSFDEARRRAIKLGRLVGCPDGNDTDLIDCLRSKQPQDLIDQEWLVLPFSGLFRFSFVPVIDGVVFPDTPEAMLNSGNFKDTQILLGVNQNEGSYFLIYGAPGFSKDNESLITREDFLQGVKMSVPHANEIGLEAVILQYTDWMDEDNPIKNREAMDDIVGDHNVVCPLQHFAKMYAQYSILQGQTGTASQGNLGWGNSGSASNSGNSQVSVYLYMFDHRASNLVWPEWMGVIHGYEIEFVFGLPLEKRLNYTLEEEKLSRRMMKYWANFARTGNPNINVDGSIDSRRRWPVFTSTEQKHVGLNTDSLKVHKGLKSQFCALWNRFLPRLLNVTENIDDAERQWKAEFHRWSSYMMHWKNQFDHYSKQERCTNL
UniProt Q9N1N9, 29-602 limits assumed: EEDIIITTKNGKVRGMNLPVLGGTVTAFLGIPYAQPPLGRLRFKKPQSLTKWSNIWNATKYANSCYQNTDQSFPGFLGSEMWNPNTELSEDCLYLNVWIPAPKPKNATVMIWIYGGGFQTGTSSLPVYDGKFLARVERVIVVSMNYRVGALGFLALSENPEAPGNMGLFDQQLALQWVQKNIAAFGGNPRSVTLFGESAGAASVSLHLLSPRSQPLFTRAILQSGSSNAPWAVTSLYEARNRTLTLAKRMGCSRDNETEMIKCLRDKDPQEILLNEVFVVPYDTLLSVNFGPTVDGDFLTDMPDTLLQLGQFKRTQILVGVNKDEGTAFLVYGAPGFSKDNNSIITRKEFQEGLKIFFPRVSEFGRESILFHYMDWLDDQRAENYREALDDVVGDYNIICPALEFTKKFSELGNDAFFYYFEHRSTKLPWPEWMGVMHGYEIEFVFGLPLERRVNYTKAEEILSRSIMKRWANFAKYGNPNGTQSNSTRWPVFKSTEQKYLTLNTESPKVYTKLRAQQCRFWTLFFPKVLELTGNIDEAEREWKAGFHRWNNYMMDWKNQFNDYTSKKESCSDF
UniProt Q03311, 30-603 limits assumed: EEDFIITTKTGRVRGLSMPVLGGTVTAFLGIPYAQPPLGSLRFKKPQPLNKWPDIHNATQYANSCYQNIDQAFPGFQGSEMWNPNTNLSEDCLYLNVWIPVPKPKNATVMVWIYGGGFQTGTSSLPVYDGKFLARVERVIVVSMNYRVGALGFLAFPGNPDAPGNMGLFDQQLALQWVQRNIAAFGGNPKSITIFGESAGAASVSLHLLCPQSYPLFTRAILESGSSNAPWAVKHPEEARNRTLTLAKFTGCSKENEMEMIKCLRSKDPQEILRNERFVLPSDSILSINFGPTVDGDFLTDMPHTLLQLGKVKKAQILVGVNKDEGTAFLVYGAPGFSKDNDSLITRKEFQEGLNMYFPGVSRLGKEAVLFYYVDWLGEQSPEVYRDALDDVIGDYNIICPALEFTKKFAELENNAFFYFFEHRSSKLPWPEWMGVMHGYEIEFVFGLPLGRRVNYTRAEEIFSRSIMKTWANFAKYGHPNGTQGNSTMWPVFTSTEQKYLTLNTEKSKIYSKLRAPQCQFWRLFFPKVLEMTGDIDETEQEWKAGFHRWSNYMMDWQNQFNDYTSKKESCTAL

What was measured:
[1] = Substrate concentration constant was evaluated in inhibition of eel acetylcholinesterase after addition of 2-PAM
[2] = target: Acetylcholinesterase (Electrophorus electricus) (UniProt O42275); experiment: Percent activity of eel acetylcholinesterase on 20 hours incubation with 5 uM of compound at 25 degree C followed by reactivation with 0.5 mM 2-PAM after 20h
[3] = target: Acetylcholinesterase (Electrophorus electricus) (UniProt O42275); experiment: Percent activity of eel acetylcholinesterase on 4 hours incubation with 5 uM of compound at 25 degree C followed by reactivation with 0.5 mM 2-PAM after 20h
[4] = Substrate concentration constant was evaluated in inhibition of eel acetylcholinesterase
[5] = target: Butyrylcholinesterase (Equus caballus) (UniProt Q9N1N9); experiment: Percent activity of horse serum butyrylcholinesterase on 20 hours of incubation with 5 uM at 25 degree C followed by reactivation occurring spontaneously after 20h
[6] = target: Acetylcholinesterase (Electrophorus electricus) (UniProt O42275); experiment: Percent activity of eel acetylcholinesterase prior to reactivation on incubation for 4 hr with compound of 5 uM at 25 degrees
[7] = target: Acetylcholinesterase (Electrophorus electricus) (UniProt O42275); experiment: Percent activity of eel acetylcholinesterase on 2 hours of incubation with 5 uM at 25 degree C followed by reactivation occurring spontaneously after 20h
[8] = target: Acetylcholinesterase (Electrophorus electricus) (UniProt O42275); experiment: Percent activity of eel acetylcholinesterase prior to reactivation on incubation for 2 hours with compound of 5 uM at 25 degrees
[9] = Pseudo first order rate constant of compound in inhibition of eel acetylcholinesterase at pH 7.0
[10] = target: Acetylcholinesterase (Electrophorus electricus) (UniProt O42275); experiment: Percent activity of eel acetylcholinesterase on 2 hours incubation with 5 uM of compound at 25 degree C followed by reactivation with 0.5 mM 2-PAM after 20h
[11] = target: Cholinesterase (Mus musculus) (UniProt Q03311); experiment: Percent activity of mouse serum butyrylcholinesterase on 20 hours of incubation with 5 uM at 25 degree C followed by reactivation occurring spontaneously after 20h
[12] = Spontaneous reactivation rate constant evaluated by dilution method for inhibited horse serum butyrylcholinesterase
[13] = target: Acetylcholinesterase (Electrophorus electricus) (UniProt O42275); experiment: Percent activity of eel acetylcholinesterase on 4 hours of incubation with 5 uM at 25 degree C followed by reactivation occurring spontaneously after 20h
[14] = Spontaneous reactivation rate constant evaluated by dilution method for inhibited eel acetylcholinesterase
[15] = Substrate concentration constant was evaluated in inhibition of rat brain acetylcholinesterase
[16] = target: Cholinesterase (Mus musculus) (UniProt Q03311); experiment: Percent activity of mouse serum butyrylcholinesterase on 4 hours incubation with 5 uM of compound at 25 degree C followed by reactivation with 0.5 mM 2-PAM after 20h
[17] = target: Butyrylcholinesterase (Equus caballus) (UniProt Q9N1N9); experiment: Percent activity of horse serum butyrylcholinesterase prior to reactivation on incubation for 4 hr with compound of 5 uM at 25 degrees
[18] = Substrate concentration constant was evaluated in inhibition of mouse serum butyrylcholinesterase
[19] = target: T1, Acetylcholinesterase (Rattus norvegicus) (UniProt P37136); experiment: Percent activity of rat brain acetylcholinesterase on 5 hours of incubation with 5 uM at 25 degree C followed by reactivation occurring spontaneously after 20h
T1 sequence (whole entry): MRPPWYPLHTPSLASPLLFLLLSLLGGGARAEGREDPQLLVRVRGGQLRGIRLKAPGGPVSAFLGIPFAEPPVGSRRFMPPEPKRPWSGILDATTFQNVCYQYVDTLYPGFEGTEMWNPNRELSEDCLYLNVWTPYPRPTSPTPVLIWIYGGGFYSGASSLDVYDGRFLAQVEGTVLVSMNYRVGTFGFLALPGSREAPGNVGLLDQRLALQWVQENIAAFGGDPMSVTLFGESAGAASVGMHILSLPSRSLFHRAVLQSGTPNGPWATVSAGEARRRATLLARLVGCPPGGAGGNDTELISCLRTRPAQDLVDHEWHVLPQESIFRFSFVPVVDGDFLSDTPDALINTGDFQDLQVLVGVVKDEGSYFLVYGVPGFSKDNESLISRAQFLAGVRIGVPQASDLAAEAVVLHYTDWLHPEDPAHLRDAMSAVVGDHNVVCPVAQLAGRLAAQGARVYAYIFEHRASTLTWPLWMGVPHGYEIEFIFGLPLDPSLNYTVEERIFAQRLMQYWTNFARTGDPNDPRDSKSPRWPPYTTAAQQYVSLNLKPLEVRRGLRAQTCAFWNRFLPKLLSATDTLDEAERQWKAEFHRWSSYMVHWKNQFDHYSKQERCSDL

[20] = target: Butyrylcholinesterase (Equus caballus) (UniProt Q9N1N9); experiment: Percent activity of horse serum butyrylcholinesterase on 2 hours of incubation with 5 uM at 25 degree C followed by reactivation occurring spontaneously after 20h
Mus musculus = experiment: Percent survival of mice in 24 hr of observation, pretreated with compound dose of 150 mg/kg subcutaneously against soman followed by 60 mg/kg of toxogonin and 11.2 mg/kg of atropine
[21] = Pseudo first order rate constant of compound in inhibition of rat brain acetylcholinesterase at pH 7.0
[22] = Spontaneous reactivation rate constant evaluated by dilution method for inhibited rat brain acetylcholinesterase
[23] = target: T1, Acetylcholinesterase (Rattus norvegicus); experiment: Percent activity of rat brain acetylcholinesterase prior to reactivation on incubation for 5 hr with compound of 5 uM at 25 degrees
[24] = target: Cholinesterase (Mus musculus) (UniProt Q03311); experiment: Percent activity of mouse serum butyrylcholinesterase prior to reactivation on incubation for 4 hr with compound of 5 uM at 25 degrees
[25] = target: Butyrylcholinesterase (Equus caballus) (UniProt Q9N1N9); experiment: Percent activity of horse serum butyrylcholinesterase on 4 hours incubation with 5 uM of compound at 25 degree C followed by reactivation with 0.5 mM 2-PAM after 20h
[26] = target: Cholinesterase (Mus musculus) (UniProt Q03311); experiment: Percent activity of mouse serum butyrylcholinesterase prior to reactivation on incubation for 20 hr with compound of 5 uM at 25 degrees
[27] = target: Acetylcholinesterase (Electrophorus electricus) (UniProt O42275); experiment: Percent activity of eel acetylcholinesterase prior to reactivation on incubation for 20h with compound of 5 uM at 25 degrees
[28] = Substrate concentration constant was evaluated in inhibition of horse serum butyrylcholinesterase
[29] = target: Acetylcholinesterase (Electrophorus electricus) (UniProt O42275); experiment: Percent activity of eel acetylcholinesterase on 20 hours of incubation with 5 uM at 25 degree C followed by reactivation occurring spontaneously after 20h
[30] = target: T1, Acetylcholinesterase (Rattus norvegicus); experiment: Percent activity of rat brain acetylcholinesterase on 5 hours incubation with 5 uM of compound at 25 degree C followed by reactivation with 0.5 mM 2-PAM after 20h
[31] = target: Cholinesterase (Mus musculus) (UniProt Q03311); experiment: Percent activity of mouse serum butyrylcholinesterase on 4 hours of incubation with 5 uM at 25 degree C followed by reactivation occurring spontaneously after 20h
[32] = target: Butyrylcholinesterase (Equus caballus) (UniProt Q9N1N9); experiment: Percent activity of horse serum butyrylcholinesterase on 2 hours incubation with 5 uM of compound at 25 degree C followed by reactivation with 0.5 mM 2-PAM after 20h
[33] = target: Butyrylcholinesterase (Equus caballus) (UniProt Q9N1N9); experiment: Percent activity of horse serum butyrylcholinesterase prior to reactivation on incubation for 20h with compound of 5 uM at 25 degrees
[34] = target: Cholinesterase (Mus musculus) (UniProt Q03311); experiment: Percent activity of mouse serum butyrylcholinesterase on 20 hours incubation with 5 uM of compound at 25 degree C followed by reactivation with 0.5 mM 2-PAM after 20h
[35] = target: Butyrylcholinesterase (Equus caballus) (UniProt Q9N1N9); experiment: Percent activity of horse serum butyrylcholinesterase on 20 hours incubation with 5 uM of compound at 25 degree C followed by reactivation with 0.5 mM 2-PAM after 20h
[36] = target: Cholinesterase (Mus musculus) (UniProt Q03311); experiment: Percent activity of horse serum butyrylcholinesterase prior to reactivation on incubation for 2 hr with compound of 5 uM at 25 degrees
[37] = Spontaneous reactivation rate constant evaluated by dilution method for inhibited mouse serum butyrylcholinesterase
[38] = Substrate concentration constant was evaluated in inhibition of rat brain acetylcholinesterase after addition of 2-PAM
[39] = target: Butyrylcholinesterase (Equus caballus) (UniProt Q9N1N9); experiment: Percent activity of horse serum butyrylcholinesterase on 4 hours of incubation with 5 uM at 25 degree C followed by reactivation occurring spontaneously after 20h

C[N+](C)(C)c1cccc(OP2(=O)OCCCO2)c1
ks [1]: 0.08 min⁻¹
Activity [2]: 98%
Activity [3]: 98%
ks [4]: 0.07 min⁻¹
Activity [5]: 6%
Activity [6]: 65%
Activity [7]: 96%
Activity [8]: 65%
k' [9]: 0.11 min⁻¹
Activity [10]: 100%
Activity [11]: 60%
kr [12]: 0.06 min⁻¹
Activity [13]: 94%
kr [14]: 0.26 min⁻¹
ks [15]: 0.015 min⁻¹
Activity [16]: 78%
Activity [17]: 21%
ks [18]: < 0.005 min⁻¹
Activity [19]: 96%
Activity [20]: 39%
Survival (Mus musculus): 5%
k' [21]: 0.2 min⁻¹
kr [22]: 0.11 min⁻¹
Activity [23]: 30%
Activity [24]: 68%
Activity [25]: 61%
Activity [26]: 52%
Activity [27]: 60%
ks [28]: < 0.005 min⁻¹
Activity [29]: 98%
Activity [30]: 98%
Activity [31]: 78%
Activity [32]: 78%
Activity [33]: 10%
Activity [34]: 60%
Activity [35]: 31%
Activity [36]: 17%
kr [37]: 0.01 min⁻¹
ks [38]: 0.013 min⁻¹
Activity [39]: 42%
